From publication PMC7221417 (European journal of medicinal chemistry, 2020)

Assay: Qualitative solubility in water and organic solvents
Assay type: physicochemical

C1=CCCC=CCC1.CC(C)(C#N)c1cc(Cn2cncn2)cc(C(C)(C)C#N)c1.CC(C)(C#N)c1cc(Cn2cncn2)cc(C(C)(C)C#N)c1.[Cl-].[Cl-].[Ru+2] [Complex 1, RuCOD(ATZ)2Cl2]
solubility in organic solvents (qualitative): soluble in acetone, alcohols and dimethyl sulfoxide (DMSO)
solubility in water (qualitative): poorly soluble in water
